Values of other authors in paper PMC6682141.

By UniProt entry, the sequences of proteins in these tests, tags left out.
UniProt P61073, whole entry: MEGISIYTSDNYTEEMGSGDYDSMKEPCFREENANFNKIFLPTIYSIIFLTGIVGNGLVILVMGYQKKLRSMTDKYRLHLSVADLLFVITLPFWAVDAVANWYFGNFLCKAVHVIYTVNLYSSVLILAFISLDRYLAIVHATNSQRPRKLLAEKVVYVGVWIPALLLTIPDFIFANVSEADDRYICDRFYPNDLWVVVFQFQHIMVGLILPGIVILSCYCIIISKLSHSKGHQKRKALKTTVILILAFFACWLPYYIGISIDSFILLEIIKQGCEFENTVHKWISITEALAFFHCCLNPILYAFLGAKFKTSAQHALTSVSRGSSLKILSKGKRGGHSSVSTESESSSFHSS

Biological target: CXCR4 (Homo sapiens) (UniProt P61073)

For ubiquitin (from UniProt P0CG47), the Kd is given as 0.156 µM.
